Experimental data published in ChEMBL document CHEMBL4028888, “Design of MC1R Selective γ-MSH Analogues with Canonical Amino Acids Leads to Potency and Pigmentation” (J Med Chem, 2017).

Sequences of proteins named here, by UniProt entry; tags and fusion partners are left off.
UniProt P32245, whole entry: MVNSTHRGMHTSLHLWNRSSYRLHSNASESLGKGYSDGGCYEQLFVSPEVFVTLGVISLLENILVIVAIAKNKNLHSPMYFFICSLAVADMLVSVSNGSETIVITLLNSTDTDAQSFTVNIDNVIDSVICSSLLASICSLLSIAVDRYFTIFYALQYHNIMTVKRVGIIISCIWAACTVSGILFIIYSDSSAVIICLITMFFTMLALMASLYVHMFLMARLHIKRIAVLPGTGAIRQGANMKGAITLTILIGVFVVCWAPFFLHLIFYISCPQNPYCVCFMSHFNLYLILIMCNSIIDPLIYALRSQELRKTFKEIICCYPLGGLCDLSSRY

Target: Melanocortin receptor 4 (Homo sapiens, UniProt P32245)
Assay: Agonist activity at human MC4R expressed in HEK293 cells assessed as induction of intracellular cAMP accumulation at 10 uM after 3 mins relative to MT-2
Format: cell-based
Conditions: 0.05 h, read-out: %max

CCCC[C@H](NC(=O)[C@@H](NC(=O)[C@@H](N)Cc1ccc(O)cc1)C(C)C)C(=O)NCC(=O)N[C@@H](Cc1c[nH]cn1)C(=O)N[C@H](Cc1ccc2ccccc2c1)C(=O)N[C@@H](CCCN=C(N)N)C(=O)NC(Cc1c[nH]c2ccccc12)C(=O)N[C@@H](CC(=O)O)C(=O)N[C@@H](CCCN=C(N)N)C(=O)N[C@@H](Cc1ccccc1)C(=O)NCC(N)=O (stereo in doubt)
Emax at 10 µM: 18%
